Source: PubChem BioAssay AID602313 (National Center for Advancing Translational Sciences (NCATS), 2012)
Only a part is listed here, and it is no random draw. Active and inactive are the calls of the source. The call rests on the fitted dose curve; in most records, active means well fitted inhibition curve with a large enough effect; inconclusive means small, poorly fitted or top-dose-only effect; inactive means flat fitted curve, though single readings scatter.

Test: qHTS for Inhibitors of Vif-A3F Interactions: qHTS; further: % of control where 0% means no effect; nearly all actives have a fitted effect of over 65% in size
Conditions: HeLa A3F-eYFP + Vif (tagged APOBEC3F with the HIV-1 protein that degrades it), YFP fluorescence increase; at 46.1 µM (top of the series)
Description: The recent discovery and characterization of host restriction factors, which provide a potent defense to invading retroviruses, has provided new targets for antiviral drug development. APOBEC3G (A3G) and APOBEC3F (A3F) are potent cytidine deaminases that block HIV-1 replication; HIV-1 expresses the Vif protein, which counteracts A3G and A3F by binding to them and inducing their proteasomal degradation. The Vif-A3G and Vif-A3F interactions provide two potential targets for development of small molecules which can interfere with the ability of Vif to degrade A3G or A3F. […] To identify inhibitors that can interfere with Vif mediated degradation of A3G and A3F, we have developed Hela cell lines that stably express A3G or A3F tagged with eYFP at the C-terminal end (A3G-eYFP or A3F-eYFP, respectively) and Vif. In the absence of an inhibitor, Vif induces degradation of A3G-eYFP and A3F-eYFP, and the cells are not fluorescent. In the presence of an inhibitor, it is expected that Vif will be unable to degrade A3G-eYFP and/or A3F-eYFP, resulting in an increase in yellow fluorescence. In this assays Vif A3F was screened against the Molecular Library Small Molecule Repository (MLSMR). […]
5 uL of 700 cells/well of A3F-YFP cells are dispensed into black, clear bottom plates. […] The plates are incubated overnight at 37 deg C and then read on the TTP Acumen (Ex 488/ Em 500-530).

SMILES | activity, negative = active
CCC(=O)N(c1ccccc1)C1(COC)CCN(CCn2nnn(CC)c2=O)CC1 | inactive: 1.07%
CCC(=O)N(c1ccccc1)C1(COC)CCN(CCc2cccs2)CC1 | inactive: -0.558%
